Test results as given in US7618967B2, “Indane compounds” (H. Lundbeck A/S, priority 2006, dated 2009).

Chains of the proteins cited; added tags and fusions are not shown. Residues count along the entry.
UniProt P23977, whole entry: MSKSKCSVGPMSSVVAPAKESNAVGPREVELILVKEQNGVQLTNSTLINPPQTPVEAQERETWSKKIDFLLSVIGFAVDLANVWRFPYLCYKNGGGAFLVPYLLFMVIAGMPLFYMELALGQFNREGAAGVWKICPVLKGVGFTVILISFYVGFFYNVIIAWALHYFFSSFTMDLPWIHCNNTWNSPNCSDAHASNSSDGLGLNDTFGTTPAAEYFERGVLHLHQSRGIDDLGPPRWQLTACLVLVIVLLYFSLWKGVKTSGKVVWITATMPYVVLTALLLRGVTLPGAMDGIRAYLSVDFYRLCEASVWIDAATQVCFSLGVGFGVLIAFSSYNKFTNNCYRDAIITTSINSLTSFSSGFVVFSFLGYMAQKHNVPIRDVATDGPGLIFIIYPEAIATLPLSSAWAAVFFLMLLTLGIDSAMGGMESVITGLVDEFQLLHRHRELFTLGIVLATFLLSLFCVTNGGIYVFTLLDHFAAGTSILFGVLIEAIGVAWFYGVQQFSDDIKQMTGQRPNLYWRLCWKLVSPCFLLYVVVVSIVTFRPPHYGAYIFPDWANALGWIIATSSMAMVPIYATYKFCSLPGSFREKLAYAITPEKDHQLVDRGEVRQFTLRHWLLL
UniProt P31652, whole entry: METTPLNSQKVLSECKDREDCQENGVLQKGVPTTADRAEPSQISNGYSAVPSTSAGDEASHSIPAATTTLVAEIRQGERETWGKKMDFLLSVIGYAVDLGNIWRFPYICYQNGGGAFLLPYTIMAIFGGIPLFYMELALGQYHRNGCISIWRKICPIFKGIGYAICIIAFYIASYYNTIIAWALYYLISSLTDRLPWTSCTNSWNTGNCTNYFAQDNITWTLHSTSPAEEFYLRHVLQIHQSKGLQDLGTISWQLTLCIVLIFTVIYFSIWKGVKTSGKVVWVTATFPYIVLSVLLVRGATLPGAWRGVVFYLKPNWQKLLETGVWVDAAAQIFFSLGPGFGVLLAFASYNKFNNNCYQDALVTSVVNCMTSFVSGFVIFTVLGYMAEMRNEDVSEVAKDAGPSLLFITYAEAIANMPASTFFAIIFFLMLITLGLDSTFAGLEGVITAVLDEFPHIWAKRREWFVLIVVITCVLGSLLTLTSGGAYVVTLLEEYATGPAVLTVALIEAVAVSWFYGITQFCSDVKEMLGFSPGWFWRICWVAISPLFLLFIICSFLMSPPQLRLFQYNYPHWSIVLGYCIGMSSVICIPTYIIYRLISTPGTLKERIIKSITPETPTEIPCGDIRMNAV
UniProt Q9WTR4, 6-550 limits assumed: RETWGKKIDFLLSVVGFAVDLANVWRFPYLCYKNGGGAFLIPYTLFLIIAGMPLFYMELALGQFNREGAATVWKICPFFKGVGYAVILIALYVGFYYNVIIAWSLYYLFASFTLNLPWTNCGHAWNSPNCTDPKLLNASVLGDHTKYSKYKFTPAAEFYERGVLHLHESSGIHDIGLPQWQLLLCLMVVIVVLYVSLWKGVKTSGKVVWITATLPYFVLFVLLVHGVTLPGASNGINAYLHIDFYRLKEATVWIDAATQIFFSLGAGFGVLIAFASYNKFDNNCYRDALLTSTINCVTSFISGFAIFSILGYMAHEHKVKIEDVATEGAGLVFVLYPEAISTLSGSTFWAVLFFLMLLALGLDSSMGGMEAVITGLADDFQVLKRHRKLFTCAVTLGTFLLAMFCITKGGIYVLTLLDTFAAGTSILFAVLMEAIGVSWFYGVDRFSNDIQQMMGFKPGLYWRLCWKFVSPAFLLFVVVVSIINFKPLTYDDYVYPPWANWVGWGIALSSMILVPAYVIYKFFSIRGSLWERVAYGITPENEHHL

Tests used:
Format in all cases: biochemical
[1] = biological target: DAT Dopamine Transporter (Rattus norvegicus, UniProt P23977); assay: Measurements of [3H]dopamine uptake into rat synaptosomes; conditions: read-out: DAT (IC50 nM), rat synaptosomes (striatum)
[2] = biological target: 5-HTT Serotonin Transporter (Rattus norvegicus, UniProt P31652); assay: Measurements of [3H]-5-HT uptake into rat cortical synaptosomes; conditions: read-out: 5-HTT (IC50 nM)
[3] = biological target: NAT Noradrenergic Transporter (Rattus norvegicus, UniProt Q9WTR4); assay: Measurements of [3H]noradrenaline uptake into rat cortical synaptosomes; conditions: read-out: NAT (IC50 nM)

Measured: IC50

CN[C@@H]1C[C@H](c2c[nH]c3c(F)cccc23)c2ccccc21
0.1 to 200 nM: all assays above

CN[C@H]1C[C@@H](c2c[nH]c3c(F)cccc23)c2ccccc21
0.1 to 200 nM: all assays above
